## Apparent affinities of Ab-14 variants for a coronavirus HR2 peptide

Target: peptide PDVDLGDISGINAS, taken from heptad repeat 2 (HR2) of SARS-CoV-2 spike.

Each scFv is VH, a (GGGGS)3 linker, VL, as in the parent Ab-14, and differs from it in the CDRs of the light chain only.
VH: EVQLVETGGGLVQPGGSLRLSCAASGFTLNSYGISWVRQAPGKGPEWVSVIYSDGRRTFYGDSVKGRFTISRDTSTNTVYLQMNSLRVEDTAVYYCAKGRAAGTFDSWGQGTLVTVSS
VL: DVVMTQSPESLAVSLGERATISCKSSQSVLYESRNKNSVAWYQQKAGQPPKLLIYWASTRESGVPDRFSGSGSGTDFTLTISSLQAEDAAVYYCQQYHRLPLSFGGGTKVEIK

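The parent was found by panning a naive human phage display library on the peptide. These sequences belong to a second round, designed from the earlier measurements on random variants of the parent. Group labels follow the data file (Ctrl: baseline library sampled from a position-specific scoring matrix, with some repeated check sequences; Rand: our label for a block that the file lists under HC and that is probably the random mutants of the ten best first-round binders; En: ensemble of fine-tuned language models; GP: Gaussian process model; HC: hill climbing; Gen: genetic algorithm; Gibbs: Gibbs sampling; a sequence that several methods proposed may carry one label only). Affinity was read by AlphaSeq, a pooled yeast mating assay with surface-displayed partners. After mating in shaken culture at 30 °C for 16 h, diploids were selected and their barcode pairs sequenced. Each replicate has its own calibration line, from reference interactions of the BCL2 family. Each pool was mated in six replicate cultures.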

The parent's light chain CDRs are KSSQSVLYESRNKNSVA, WASTRES, QQYHRLPLS; each variant's own CDRs replace them letter for letter.
Values are apparent Kd, the geometric mean of the replicates that gave a signal; lower means stronger binding.
A pair that was not seen in any replicate is written "not detected"; this usually means weak binding, but a binder can also be missed.

CDR-L1	CDR-L2	CDR-L3	group	apparent Kd	replicates with signal	control signals
ISSQSWLYESRNKNSVA	GASTRES	QQYHRLPLS	GP_HC	260 pM	6/6	0/18
KLLQTVMNETRNRNNVA	HMTTRED	QQYHHLPLS	En_HC	3.0 nM	6/6	2/18
KFNQSKEGVTYEGESIA	GSQTIQE	QQYDRLPLA	En_Gibbs	8.9 nM	6/6	0/18
KSSISVDYEDRNQNSVA	SASQREH	QQYHRLPLS	GP_Gibbs	93 nM	6/6	0/18
TISQSAQMESHNKNSVA	DLNLRGQ	QQYDRLPLS	En_HC	910 pM	6/6	1/18
KLPFSVLYESRNKNSVA	EASTRES	QQYHRLPLS	GP_Gen	1.9 nM	6/6	0/18
KSYQSVLLESRNFNSVA	HASTRED	QQYHRLPLS	GP_HC	2.1 nM	6/6	1/18
KMSQSVLMEMRNGNSVA	NASTREE	QQYHRLPLS	GP_Gibbs	690 pM	6/6	0/18
KSGQSVLYESENKNSVA	WASTRES	QQYHRLPLS	Ctrl	160 nM	4/6	0/18
TISMVMNHMTKNHQNVA	NQDMREN	QQYDRLPLS	En_Gen	3.8 nM	6/6	0/18
MISQVMNTLTREGNNVA	DLQEREE	QQYFRLPLS	En_Gen	12 nM	6/6	0/18
HLHTVNYTQAIGTNAIA	DATLSVT	QQYFRLPIM	En_Gibbs	16 nM	6/6	1/18
KLQQSVLYESRNKNSVA	NASTRLQ	QQYHRLPLS	GP_Gen	320 pM	6/6	1/18
HVSQSVLTETSNKNSVA	WASTRES	QQYHDLPLS	Ctrl	250 nM	2/6	0/18
KLSQSNLYESRNKNSVA	NASQREQ	QQYHRLPLS	GP_Gen	980 pM	6/6	0/18
QLDWYNTTATASANNVA	DVAQRMN	QQYMRLPLM	En_Gibbs	1.1 nM	6/6	1/18
KVSIFMLTMDNAWSSIA	NMAEERT	QQYQRLPLS	En_Gibbs	5.8 nM	1/6	0/18
KSLWSVLYESNNKNSVA	NASTRED	QQYHRLPLS	GP_HC	2.2 nM	6/6	0/18
MISDLMLHGSRAKNPIA	NASTREY	QQYHRLPLE	En_HC	5.3 nM	6/6	0/18
KVSQSMLYESRNKNAVA	NASQRES	QQYHRLPLS	GP_Gen	320 pM	6/6	1/18
KYSQSQLYESRNVNAVA	NASQRMS	QQYHRLPLS	GP_Gibbs	1.5 nM	6/6	3/18
KSSTSVLYESRNHNSVA	WASTRES	QQYHRLPLS	Ctrl	390 nM	3/6	1/18
SFTIEGLQQQEQYNSVA	GEQKTVD	QQYGRLPLS	En_Gibbs	3.3 nM	6/6	0/18
KLPQSMLYESRNKNSVA	QASTRES	QQYHRLPLS	GP_Gen	260 pM	6/6	1/18
TISQSAQQESHNKNSVA	DLSVRGS	QQYHRLPLS	En_HC	2.2 nM	6/6	0/18
KSSQSVLYYSLNKNAVA	HASTRES	QQYHRLPYS	Ctrl	120 nM	1/6	0/18
KFSQSVLYESRVKNSVA	NASTRES	QQYHRLPLS	GP_HC	930 pM	6/6	1/18
YSSQSVLAESANKNAVA	WASTREI	QQYHRLPLS	Ctrl	11 nM	1/6	0/18
KISQSVLYESRNKNSVA	WAYTRES	QQYHRLPLS	Ctrl	7.3 nM	6/6	1/18
KFSQSVLYESTTCNSVA	NASTRES	QQYHRLPLS	GP_HC	2.3 nM	6/6	0/18
KFSQSVLYESRNKNNVA	WAQTRES	QQYHRLPLS	Ctrl	2.4 nM	6/6	1/18
EISILGESVTGHYSNVA	EQHVTEM	QQYFRLPLS	En_Gibbs	not detected	0/6	0/18
KPSQSVLYESRNKCSVM	DASTRES	QQYHRLPLS	Rand	not detected	0/6	0/18
KVSQSELYESRNKNSVA	NASQRMS	QQYHRLPLS	GP_Gen	1.1 nM	6/6	1/18
TLQDWGIYGMENMNRIA	ERSKLEM	QQYGRLPLS	En_Gibbs	2.1 nM	6/6	0/18
KSSQSWLYEDRVKNNVA	GASTRES	QQYHRLPLS	GP_HC	11 nM	6/6	0/18
KSSQSHLQESRNKNSVA	WASTRES	QQCHRLPLS	Ctrl	not detected	0/6	1/18
TLYGLSNSMSKNKNSVA	EMTTRED	QQYDRLPLV	En_Gen	70 nM	6/6	1/18
KSSQSVLYESRNLNSVA	WGSTRES	QQYHRLPLS	Ctrl	15 nM	1/6	0/18
KDSQSVLYESRGANSVA	FASTRES	QQYHRLPLS	Ctrl	26 nM	4/6	0/18
KSQQSWEYGDRNKNSVA	NASQRED	QQYHRLPLS	GP_Gibbs	20 nM	5/6	0/18
KLSIMGLHQSIDKKSIA	ERSTREN	QQYHRLPLS	En_HC	4.8 nM	6/6	0/18
KMSQSVYYESRNKNSVA	EASTRES	QQYHRLPLN	Ctrl	13 nM	6/6	0/18
TIGQSTMVESYNKNSVA	QASTREE	QDYHRLPLS	En_HC	25 nM	6/6	1/18
MFSQSVMYGSFMRNSVA	QTTTREN	QQYDRLPLS	En_HC	24 nM	6/6	1/18
KLRQSTLYESRNKNSWA	WASTRES	QWYHRLPLS	Rand	not detected	0/6	2/18
KSSESVTYESRNKNSVA	WGSTRES	QQYHRLPLS	Ctrl	8.7 nM	6/6	0/18
KSSQSVLYEDNNKNSVA	WASTRES	QQYHRLGLK	Ctrl	59 nM	5/6	0/18
KTSQSVLYESRRKNSVA	GASTRES	FQYHRLPLS	Ctrl	160 nM	1/6	0/18
KSSQSVLYESRNENSVA	AASTREF	QQCHRLVLS	Ctrl	not detected	0/6	0/18
KLSQSMLYESRNKNSVA	NASTREQ	QQYHRLPLS	GP_Gen	750 pM	6/6	1/18
KSSQSVLYESRNKNSVA	SASTRES	QDYHRLPLS	Ctrl	850 pM	6/6	1/18
KLSQSWLYLSRNHNAVA	QASQRLS	QDYHRLPLS	GP_Gibbs	1.4 nM	6/6	1/18
KSQISFLYESRNKNSVA	EASTRES	QQYHRLPLS	GP_HC	570 pM	6/6	0/18
KLDHYKLGENGMRGSIA	NMTIRDY	QQYFHLPLF	En_Gibbs	16 nM	6/6	0/18
KIHQSVLYEDRNINSVA	SASQRMS	QQYHRLPLS	GP_Gibbs	5.3 nM	6/6	1/18
KSSQSVLYESRNKNPCA	WASTRES	QQYHRLPLS	Ctrl	81 nM	1/6	0/18
HISYSVGMTSRNKNSVA	ENSTRED	QQYDRLPLS	En_HC	180 nM	5/6	1/18
KSSQSVLYEARNKNSVA	WASTREA	QQYHRLPLS	Ctrl	29 nM	6/6	1/18
KSSQSVRNESRNKNSVA	WASTRES	QQYHRLPLS	Ctrl	11 nM	6/6	0/18
KLSSVTGHMSMAKNNVA	EMETREK	QQYNRLPLS	En_Gen	510 pM	6/6	2/18
KSSQSVLYEMRNKNIVA	WAATRES	QQYHRLPLS	Ctrl	not detected	0/6	0/18
KLSQSWLYESRNKNSVA	EASTRES	QDYHRLPLS	GP_Gen	1.0 nM	6/6	2/18
KSSFSQLYEDRNKNSVA	SASQRES	QQYHRLPLS	GP_Gibbs	1.4 nM	6/6	0/18
KVSEFMRGLMGRKDSIA	DNTTRGS	QQYDRLPLS	En_Gen	320 nM	3/6	0/18
KSSQSVLAESRNKNSVA	WASTRES	QQYARLPLS	Ctrl	34 nM	4/6	0/18
QSSQSVLYESNNKNSVA	WASTRES	QTYNRLPLM	Ctrl	43 nM	5/6	0/18
KSSQSVYQESRGKNSVA	WASTRES	QQYHRLPLD	Ctrl	not detected	0/6	1/18
KLSQSELYESRNKNSVA	NASLRES	QQYHRLPLS	GP_Gen	3.1 nM	6/6	2/18
HVHMECAEEKNIKYNIA	DASMRLA	QQYVRLPLG	En_Gibbs	4.1 nM	6/6	0/18
KQDQSWLSESDNKNSVA	SANTRES	QQYHRLPLS	Ctrl	16 nM	6/6	0/18
KSACGVLYESRNKNSVA	GASTRES	QQYHRLPLS	GP_HC	2.3 nM	6/6	0/18
TISELYNQALGTRNNVA	NNQTRED	QQYDRLPLS	En_Gen	680 nM	4/6	1/18
KLSQLNLYESRNKNSVA	NASTRES	QQYHRLPLS	GP_Gen	1.1 nM	6/6	1/18
KLSQSVWMESRNKWNVA	NASYRES	QQYHRLPLS	GP_Gibbs	680 pM	6/6	2/18
KSFFSKPGESRNKNSVA	EASTRES	QQYHRLPLS	GP_Gibbs	1.1 nM	6/6	2/18
LISGVWDLGSRNYNSVA	QTSTRES	QQYDRLPLE	En_HC	9.0 nM	6/6	0/18
MISDLMLQGSRNKNPIA	NASTREY	QQYHRLPLE	En_HC	140 nM	4/6	0/18
KSSQSWLGMDWNKNSVA	QASQRMS	QQYHRLPLS	GP_Gibbs	7.7 nM	6/6	0/18
KLSQSCLYESRNKNSVA	GASTRES	QQYHRLPLS	GP_Gen	210 pM	6/6	0/18

Excerpt, the final 12 entries:

CDR-L1	CDR-L2	CDR-L3	group	apparent Kd	replicates with signal	control signals
KLSQSELYESRNKNSVA	NASLRES	QQYHRLPLS	GP_Gen	3.1 nM	6/6	2/18
HVHMECAEEKNIKYNIA	DASMRLA	QQYVRLPLG	En_Gibbs	4.1 nM	6/6	0/18
KQDQSWLSESDNKNSVA	SANTRES	QQYHRLPLS	Ctrl	16 nM	6/6	0/18
KSACGVLYESRNKNSVA	GASTRES	QQYHRLPLS	GP_HC	2.3 nM	6/6	0/18
TISELYNQALGTRNNVA	NNQTRED	QQYDRLPLS	En_Gen	680 nM	4/6	1/18
KLSQLNLYESRNKNSVA	NASTRES	QQYHRLPLS	GP_Gen	1.1 nM	6/6	1/18
KLSQSVWMESRNKWNVA	NASYRES	QQYHRLPLS	GP_Gibbs	680 pM	6/6	2/18
KSFFSKPGESRNKNSVA	EASTRES	QQYHRLPLS	GP_Gibbs	1.1 nM	6/6	2/18
LISGVWDLGSRNYNSVA	QTSTRES	QQYDRLPLE	En_HC	9.0 nM	6/6	0/18
MISDLMLQGSRNKNPIA	NASTREY	QQYHRLPLE	En_HC	140 nM	4/6	0/18
KSSQSWLGMDWNKNSVA	QASQRMS	QQYHRLPLS	GP_Gibbs	7.7 nM	6/6	0/18
KLSQSCLYESRNKNSVA	GASTRES	QQYHRLPLS	GP_Gen	210 pM	6/6	0/18

The parent sequence was in this pool as ten entries: three were never detected, three once, and four in most replicates, with averages from 2.2 nM to 240 nM.
In the paper, a design with two or fewer of six values counts as a poor binder.
A sequence measured in both rounds can read differently, since the two assays cover different ranges.
Empty control strains, which show no peptide, gave a signal in 4% of pairings with all light chain designs; the median was 430 nM and 95% of these signals were weaker than 38 nM. No background was subtracted. The control count says in how many pairings with the empty strains this scFv gave a signal.

From the AlphaSeq antibody data of Li et al. 2023 (doi:10.1038/s41467-023-39022-2), copy in the FLAb collection.